Tested on: uptake of serotonin
Test: Effect on the uptake of serotonin in vivo (protection from p-chloramphetamine)
[1] = applied before p-chloramphetamine

CN(C)CCCC1(c2ccc(F)cc2)OCc2cc(C#N)ccc21 (stereo not drawn) [Citalopram, citalopram]
serotonin, % in relation to the group after p-chloramphetamine (20 mg/kg before p-chloramphetamine (table: before 6-OHDA)): 155% | increase of amine (serotonin) level over the level of control [1]: 40% | prevention of the decline of the amine level [1]: prevented the decline of the amine level

Source: US5643907A, “Pharmaceutical composition containing 5-morpholinomethyl-3-(4-chlorobenzylideneamine)-2-oxazolidinone and its use for the treatment of CNS disorders” (priority 1993, dated 1997)
